Values quoted from earlier work as cited in patent US20250135049A1, “Methods for Biological Material Labeling and Medical Imaging” (Mayo Foundation for Medical Education and Research, priority 2021, published 2025).

Test system: mouse melanoma, mouse dendritic cells and human mesenchymal stem cells
Details: 7 days-post radiolabeling; Ref. 2; cited from earlier work

[^89Zr] zirconium-p-isothiocyanatobenzyl-desferrioxamine [[^89Zr] Zr-DBN]
efflux of free ^89Zr overtime: insignificant efflux
